Measurements published in EP1144368B1, “ACETYLENIC ALPHA-AMINO ACID-BASED SULFONAMIDE HYDROXAMIC ACID TACE INHIBITORS” (priority 1999, dated 2000).
Read-outs that look alike come from different tables or passages of the source.

Chains of the proteins cited; added tags and fusions are not shown. Residues count along the entry.
UniProt P78536, 215-824 limits assumed: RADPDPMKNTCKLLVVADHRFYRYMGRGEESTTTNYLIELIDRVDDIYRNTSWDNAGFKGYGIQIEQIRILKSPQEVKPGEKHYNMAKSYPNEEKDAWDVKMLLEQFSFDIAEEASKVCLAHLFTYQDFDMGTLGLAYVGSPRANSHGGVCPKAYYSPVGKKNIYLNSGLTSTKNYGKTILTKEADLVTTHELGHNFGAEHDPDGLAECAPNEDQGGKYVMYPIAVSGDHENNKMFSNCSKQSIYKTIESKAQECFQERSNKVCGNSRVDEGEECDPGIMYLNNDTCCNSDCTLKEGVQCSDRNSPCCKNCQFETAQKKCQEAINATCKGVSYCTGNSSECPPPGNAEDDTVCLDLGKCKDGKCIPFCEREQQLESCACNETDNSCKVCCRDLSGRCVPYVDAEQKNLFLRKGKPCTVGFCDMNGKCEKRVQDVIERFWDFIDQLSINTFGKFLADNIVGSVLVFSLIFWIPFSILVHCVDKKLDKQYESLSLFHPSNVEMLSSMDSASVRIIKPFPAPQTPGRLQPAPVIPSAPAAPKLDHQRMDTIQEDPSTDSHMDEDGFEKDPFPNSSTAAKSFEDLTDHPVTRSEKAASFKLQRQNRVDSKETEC

Molecular target: TACE (Homo sapiens, UniProt P78536)
Experiment: TACE inhibition (fluorescent peptidyl substrate)
Format: biochemical
Settings: for IC50: read-out: IC 50 nM, Table 15: In Vitro Inhibition of TACE

% Inhibition at 1 uM (In Vitro Inhibition of TACE, 1 uM) [%] | IC50 [nM] | IC50 (tested form: neutral parent, no salt stated) [nM] | Structure (SMILES)
95 | 328 |  | CC#CCOc1ccc(S(=O)(=O)N[C@@H](CCCCNCc2ccccc2Cl)C(=O)NO)cc1
 |  | 6.11 | CC#CCOc1ccc(S(=O)(=O)N[C@H](CCCNC(=O)Cc2ccc(Cl)c(Cl)c2)C(=O)NO)cc1
